DT40 TDP1 CPT – growth inhibition of DT40 Tdp1-/-;hTDP1 cells with camptothecin (screen for TDP1 inhibitors). actives 12% (n = 420,000). chicken DT40 Tdp1-/-;hTDP1 cells + 20 nM CPT, ATP luminescence, 48 h. Potency, µM (series often up to 46.2 µM), actives largely listed as inhibitors; further: nearly all actives have a fitted effect of over 55% in size
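Chicken DT40 Tdp1-/- cells stably complemented with human TDP1 were seeded at 400 cells/well in medium containing 20 nM camptothecin, exposed to pin-transferred compounds, and grown at 37 °C for at least 48 hr. Viability was read as ATP luminescence.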
TDP1 block – inhibitors of human tyrosyl-DNA phosphodiesterase TDP1; Q9NUW8; recombinant TDP1, AlphaScreen DNA substrate cleavage; Potency, µM (top dose mostly 130 µM), usual class: inhibitors; actives 0.28% (n = 350,000); further: nearly all actives have a fitted effect of over 40% in size
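Compounds were preincubated with Tdp1 (1 nM final) for 15 min at room temperature before substrate (15 nM final) started a 5 min reaction; beads (10 ug/ml final) were then added for 10 min before AlphaScreen detection.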
uPA surface inh – blocks generation of uPA at the cell surface; cell surface uPA generation assay, qHTS; Potency, µM (titrated, usually from 38.3 µM), hits mostly inhibitors; actives 0.31% (n = 330,000); AID 540303; active means well fitted inhibition curve with a large enough effect; inconclusive means small, poorly fitted or top-dose-only effect; inactive means no such curve, though single readings can be large or run the other way; tested in mouse RAW 264.7 cells; further: nearly all actives have a fitted effect of over 55% in size
TDP1 cell noCPT – qHTS for Inhibitors of human tyrosyl-DNA phosphodiesterase 1 (TDP1): qHTS in cells in absence of CPT | AID 686978, 2013 | Potency, µM (series often up to 46.2 µM), actives largely listed as inhibitors | DT40 Tdp1-/- hTDP1 cells, no CPT, ATP luminescence, 48 h | actives 15% (n = 420,000); further: nearly all actives have a fitted effect of over 55% in size
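DT40 Tdp1-/-;hTDP1 cells, no CPT (DMSO vehicle only), 400 cells/well; compounds pin-transferred; ≥48 hr, 37 °C; CellTiter-Glo 30 min RT dark, luminescence read.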
miR-21 reporter – miR-21 reporter, rising signal | HeLa miR-21 FLuc reporter, luciferase, 48 h | Potency, µM (highest dose often 38.3 µM) | 340,000 tested, under 10 active | AID 2288; active = well fitted rising curve with a large enough effect; inconclusive = small, poorly fitted or top-dose-only effect; inactive = no such curve, though single readings can be large or run the other way;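 further: miR-21 action dims this reporter so a rising signal means less miR-21 action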
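Compounds were titrated across several concentrations (up to approximately 40 uM) and incubated 48 hours with HeLa miR-21-FLuc reporter cells (miR-21 target sequence downstream of FLuc, endogenous miR-21). Readout was firefly luciferase luminescence after lytic detection reagent.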
Hits are given with their value; . = inactive; ? = inconclusive; / = not tested or not shown. Most compounds without a hit are left out; they make up all but 16% or so of the library. Unless noted, the call rests on the fitted dose curve; in most records, active means well fitted curve in the direction sought with a large enough effect; inconclusive means small, poorly fitted or top-dose-only effect, or another doubt; inactive means no such curve, though single readings can be large; an effect the other way counts as inactive or inconclusive.

SMILES	DT40 TDP1 CPT	TDP1 block	uPA surface inh	TDP1 cell noCPT	miR-21 reporter
COc1ccc(Oc2c(OC)cc(NCc3ccc(CN)cc3)c3ncccc23)cc1	?	/	/	26µM	/
Oc1cc2c(cc1C(c1ccc(Cl)c(Cl)c1)N1CCCC1)OCO2 (stereo not given)	?	.	.	23µM	.
C=CCc1cc(C)ccc1OCCOCCC(C(=O)OCC)C(=O)OCC	.	.	.	.	.
O=C(COc1ccc(Cl)cc1Cl)NC(=O)N1CCOCC1	.	.	.	.	.
Cc1cc(C)n(-c2nc(C)c(C)c(=O)n2CC(=O)Nc2cccc([N+](=O)[O-])c2)n1	?	.	/	16µM	.
Cc1cc(=O)n(CC(=O)Nc2ccc(Cl)c(Cl)c2)c(-n2nc(C)cc2C)n1	?	.	/	16µM	.
CC(=O)c1ccc(NC(=O)Cn2c(-n3nc(C)cc3C)nc(C)c(C)c2=O)cc1	?	.	/	?	.
COC(=O)CSc1nnc(CNC(=O)c2ccc(S(=O)(=O)N(C)C)cc2)n1C	.	.	.	.	.
CN(Cc1cccs1)C(=O)COC(=O)CNC(N)=O	.	.	.	.	.
O=C(NC(Cc1ccccc1)C(=O)O)/C(=C\c1ccco1)NC(=O)c1ccccc1Br (stereo not given)	.	.	.	.	.
CCOC(=O)c1nn(-c2ccc(F)cc2)c(-c2ccccc2)c1C(=O)c1ccccc1	?	.	.	16µM	.
CCOC(=O)c1nn(-c2ccccc2)c(-c2ccccc2)c1C(=O)c1ccccc1	?	.	.	?	.
Cc1ccc(NC(=O)CN(C)S(=O)(=O)c2cccc3cccnc23)cc1	.	.	.	?	.
Cc1ccc(NC(=O)CN(C)C(=O)COc2cccc3cccnc23)cc1	3.7µM	.	.	2.9µM	.
Cc1ccc(NC(=O)c2cccc3cccnc23)cc1	?	.	.	18µM	.
CC(C)N(C(=O)CSc1nc2ccccc2c(=O)[nH]1)C(C)C	.	.	.	.	.
COc1ccccc1C1C2=C(N=C3SCC(=O)N31)c1ccccc1CC2 (stereo not given)	?	.	.	?	.
COc1ccc(C2C3=C(N=C4SCC(=O)N42)c2ccccc2CC3)cc1OC (stereo not given)	15µM	.	/	15µM	.
CC(=O)c1ccc(NC(=O)CN2C(=O)CN(C)C(=O)c3ccccc32)cc1	.	.	/	.	.
COc1oc(C(=O)NC2CCCCC2)c(-c2ccc(Cl)cc2)c1S(=O)(=O)c1ccccc1	?	/	.	21µM	/
O=C(NNS(=O)(=O)c1ccc(Cl)cc1)NC1CCCCC1	.	.	.	.	.
CCOC(=O)N1CCc2c(sc3c2C(=O)NC(c2ccccc2)N3)C1 (stereo not given)	6.5µM	.	.	3.3µM	.
COc1cc(C2NC(=O)c3c(sc4c3CCN(C)C4)N2)ccc1OC(=O)c1ccccc1 (stereo not given)	?	/	/	?	.
CCOC(=O)N1CCc2c(sc3c2C(=O)NC(c2ccc(N(C)C)cc2)N3)C1 (stereo not given)	2.3µM	.	/	3.7µM	.
O=C(O)Cc1c(O)ccc2ccccc12	.	.	.	.	.
SMILES	DT40 TDP1 CPT	TDP1 block	uPA surface inh	TDP1 cell noCPT	miR-21 reporter
Cc1cc(C)c(NC(=O)Cn2c(=O)n(Cc3ccc(C(=O)NCc4ccco4)cc3)c(=O)c3sccc32)c(C)c1	?	.	/	.	.
Cc1cccc(C)c1NC(=O)Cn1c(=O)n(Cc2ccc(C(=O)NCc3ccco3)cc2)c(=O)c2sccc21	21µM	/	/	23µM	?
Cc1ccc(-n2c(=O)c3sccc3n(CC(=O)NCc3ccco3)c2=O)cc1	.	.	/	.	.
Cc1cccc(Cn2c(=O)n(-c3ccc(CC(=O)NCc4ccco4)cc3)c(=O)c3sccc32)c1	26µM	.	?	15µM	.
Cc1ccc(Cn2c(=O)n(-c3ccccc3)c(=O)c3ccc(C(=O)NCc4ccco4)cc32)cc1	12µM	.	.	?	.
CC1CCN(C(=O)NC(=O)c2ccc(Cl)cc2)CC1	.	.	.	.	.
Cc1ccc(Cn2cnc3ccccc32)cc1	15µM	.	.	21µM	.
Cc1nc(N2CCCCC2)c2ccsc2n1	?	.	.	?	.
Cc1ccc(Oc2nc3ccccn3c(=O)c2/C=C(\C#N)C(=O)NC2CCS(=O)(=O)C2)c(C)c1 (stereo not given)	?	.	?	?	.
Cc1cc(C)cc(Oc2nc3ccccn3c(=O)c2/C=C(\C#N)C(=O)NC2CCS(=O)(=O)C2)c1 (stereo not given)	?	/	.	9.2µM	.
Cc1ccc(NC(=O)Nc2ccccc2CC[N+](=O)[O-])cc1	.	.	.	.	.
O=C(CSc1nnc(Nc2ccccc2F)s1)NC(=O)CN1CCCC1=O	.	14µM	.	.	/
O=C(CSc1nnc(Nc2ccccc2F)s1)NCc1ccco1	.	.	.	.	.
COc1ccc(N(C(=O)c2ccco2)C(C(=O)NC2CCCCC2)c2cccs2)cc1OC (stereo not given)	?	.	.	?	.
C#CC(=O)N(c1ccc(OC)cc1OC)C(C(=O)NC1CCCC1)c1cccs1 (stereo not given)	?	.	.	2.1µM	.
C#CC(=O)N(c1cc(OC)ccc1OC)C(C(=O)NC1CCCC1)c1cccs1 (stereo not given)	2.3µM	.	.	2.1µM	.
CCOc1ccccc1NC(=O)CN1CCC(C(=O)c2ccc(OC)cc2)CC1	?	.	.	?	.
COc1ccc(C2=NN(CCC(=O)NCc3ccc4c(c3)OCO4)C(=O)CC2)cc1	.	.	.	.	.
COc1cc(OC)c(C(=O)Nc2cccc(C(C)=O)c2)cc1OC	?	.	.	?	.
COCC(=O)Nc1nc2ccc(S(C)(=O)=O)cc2s1	.	.	.	.	.
COc1ccc(C(C)(NC(C)=O)c2nc(-c3cccc(C#N)c3)cs2)cc1 (stereo not given)	15µM	/	/	16µM	/
COc1ccc(C(C)(O)c2nc(-c3cccc(NC(C)=O)c3)cs2)cc1 (stereo not given)	.	/	/	?	/
COc1ccc(-c2csc(C(C)(NC(C)=O)c3ccccc3)n2)cc1 (stereo not given)	?	/	/	16µM	/
CC(=O)NC(C)(c1ccccc1)c1nc(-c2csc3ccccc23)cs1 (stereo not given)	21µM	/	/	16µM	/
COc1ccc(C(C)(NC(C)=O)c2nc(-c3cccc4cccnc34)cs2)cc1 (stereo not given)	21µM	/	/	23µM	/
COc1ccc(C(C)(NC(C)=O)c2nc(-c3cccc(C(=O)O)c3)cs2)cc1 (stereo not given)	.	/	/	.	/
COc1ccc(C(C)(NC(C)=O)c2nc(-c3cncnc3)cs2)cc1 (stereo not given)	.	/	/	.	/
